The target of the assay is 5-hydroxytryptamine receptor 1A (Rattus norvegicus, UniProt P19327). Kind of assay: Agonist activity at 5HT1A receptor in CRL:CD(SD)BR-COBS rat hippocampus assessed as increase in [35S]GTPgammaS binding. The assay is classed as functional, tissue-based. Put shortly:
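Rat hippocampal membranes (200 µg protein/sample), washed in 50 mM Tris·HCl and resuspended in pH 7.7 Tris with 10 µM pargyline and 4 mM CaCl2. Graded drug concentrations were applied, with 20 min preincubation at 37 °C, then 45 min at 37 °C with 0.1 nM [35S]GTPγS. Nonspecific binding was set with 10 µM GTPγS, followed by GF/B filtration. EC50 and Emax (vs 5-HT) came from curve fitting. Mean ± SD, three experiments.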
(In general: GTPγS is a poorly hydrolysed GTP analogue; its binding reports G protein activation.)

Protein sequences, listed by entry. Tags and fused reporters are not part of them.
UniProt P19327, whole entry: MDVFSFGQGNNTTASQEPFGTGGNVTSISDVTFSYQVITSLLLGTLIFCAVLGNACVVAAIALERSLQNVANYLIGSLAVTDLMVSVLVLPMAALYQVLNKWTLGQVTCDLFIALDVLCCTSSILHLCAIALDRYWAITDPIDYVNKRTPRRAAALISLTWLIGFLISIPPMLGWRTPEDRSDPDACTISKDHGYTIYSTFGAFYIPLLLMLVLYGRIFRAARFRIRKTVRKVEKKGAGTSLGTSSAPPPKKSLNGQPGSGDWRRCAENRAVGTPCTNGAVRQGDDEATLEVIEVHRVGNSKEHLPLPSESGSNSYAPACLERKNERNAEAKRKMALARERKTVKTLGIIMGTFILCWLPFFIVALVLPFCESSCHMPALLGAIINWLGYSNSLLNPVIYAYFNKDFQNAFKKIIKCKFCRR

Among the data in ChEMBL document CHEMBL1155805, “Synthesis of new arylpiperazinylalkylthiobenzimidazole, benzothiazole, or benzoxazole derivatives as potent and selective 5-HT1A serotonin receptor ligands” (J Med Chem, 2008) are EC50 values, retold here.

Regarding `NCCc1c[nH]c2ccc(O)cc12` [SEROTONIN], the 50% effective concentration (EC50) (in general, the concentration needed to bring the measured effect to its halfway point) was found to be 0.323 µM.
